{"sequences": {"note": "By UniProt entry, the sequences of proteins in these tests, tags left out. Residues count along the entry.", "UniProt P30926, 22-498": "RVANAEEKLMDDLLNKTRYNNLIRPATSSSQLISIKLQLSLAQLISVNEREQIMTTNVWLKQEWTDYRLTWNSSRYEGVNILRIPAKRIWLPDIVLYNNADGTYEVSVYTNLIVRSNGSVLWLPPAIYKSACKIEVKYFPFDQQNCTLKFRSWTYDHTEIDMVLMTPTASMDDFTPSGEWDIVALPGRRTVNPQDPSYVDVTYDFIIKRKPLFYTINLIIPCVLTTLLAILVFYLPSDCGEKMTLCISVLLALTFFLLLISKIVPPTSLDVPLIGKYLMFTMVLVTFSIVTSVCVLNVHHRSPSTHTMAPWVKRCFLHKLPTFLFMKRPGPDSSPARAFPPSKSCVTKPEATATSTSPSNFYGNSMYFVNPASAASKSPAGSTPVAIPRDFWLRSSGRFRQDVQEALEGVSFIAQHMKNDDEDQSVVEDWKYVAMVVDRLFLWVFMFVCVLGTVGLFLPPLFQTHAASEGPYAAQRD", "UniProt P32297, 32-505": "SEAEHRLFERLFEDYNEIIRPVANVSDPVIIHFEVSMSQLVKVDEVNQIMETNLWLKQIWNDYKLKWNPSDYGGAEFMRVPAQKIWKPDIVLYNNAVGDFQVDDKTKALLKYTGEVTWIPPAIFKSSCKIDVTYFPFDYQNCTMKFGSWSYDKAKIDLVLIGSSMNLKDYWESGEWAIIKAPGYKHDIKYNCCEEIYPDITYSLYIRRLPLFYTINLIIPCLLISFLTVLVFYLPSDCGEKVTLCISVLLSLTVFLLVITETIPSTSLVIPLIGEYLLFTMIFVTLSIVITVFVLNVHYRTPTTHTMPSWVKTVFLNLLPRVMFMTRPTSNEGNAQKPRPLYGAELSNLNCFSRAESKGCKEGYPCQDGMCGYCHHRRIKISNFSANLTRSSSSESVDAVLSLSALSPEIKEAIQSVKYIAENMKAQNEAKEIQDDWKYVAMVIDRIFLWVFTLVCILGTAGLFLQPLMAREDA", "UniProt P30532, 23-468": "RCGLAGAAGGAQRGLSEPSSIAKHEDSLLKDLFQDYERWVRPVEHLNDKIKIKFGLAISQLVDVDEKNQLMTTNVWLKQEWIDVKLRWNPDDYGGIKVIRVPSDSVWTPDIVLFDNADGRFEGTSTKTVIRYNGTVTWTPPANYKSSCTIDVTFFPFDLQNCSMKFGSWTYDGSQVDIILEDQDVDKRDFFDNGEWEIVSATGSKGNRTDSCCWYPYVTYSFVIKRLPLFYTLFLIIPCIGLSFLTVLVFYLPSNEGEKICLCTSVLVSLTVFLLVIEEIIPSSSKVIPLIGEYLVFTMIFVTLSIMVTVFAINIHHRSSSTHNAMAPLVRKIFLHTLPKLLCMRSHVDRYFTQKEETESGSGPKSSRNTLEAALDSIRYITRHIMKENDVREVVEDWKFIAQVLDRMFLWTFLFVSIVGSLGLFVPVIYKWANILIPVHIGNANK"}, "source": "paper PMC4991607", "about": "(Assay and Drug Development Technologies, 2016)", "key": {"[1]": {"target": "human α3β4 nicotinic acetylcholine receptor (Homo sapiens, UniProt P30926+P32297)", "experiment": "IonWorks Barracuda (IWB) population patch clamp, antagonist mode, α3β4-CHO", "format": "cell-based"}, "[2]": {"target": "human α3β4α5 nicotinic acetylcholine receptor (Homo sapiens, UniProt P30532+P30926+P32297)", "experiment": "IWB population patch clamp, antagonist mode, α3β4α5-CHO clones", "format": "cell-based"}}}
{"smiles": "CNC1(C)C2CCC(C2)C1(C)C", "note": "(centres unmarked) [Mecamylamine, mecamylamine]", "values": [{"measurement": "IC50", "setting": "[1]", "value": "2700 ± 500", "unit": "nM"}, {"measurement": "IC50", "setting": "[2]", "value": "1100 ± 400", "unit": "nM"}]}
